According to PubChem BioAssay AID504832 (National Center for Advancing Translational Sciences (NCATS), 2011):
The list shows a part of the results, in another mix than the full data. Some of these compounds have results that are not shown, active ones among them. Inconclusive results are not listed. Activity calls are given as the source filed them. Calls follow the shape of the dose curve; as a rule, active = well fitted inhibition curve with a large enough effect; inconclusive = small, poorly fitted or top-dose-only effect, or another doubt; inactive = no such curve, though single readings can be large or run the other way.

Test: Primary qHTS for delayed death inhibitors of the malarial parasite plastid, 48 hour incubation
Settings: P. falciparum luciferase growth in erythrocytes
From the text: The goal of this screen is to discover new antimalarial compounds that act by inhibiting the development of the apicoplast in the malarial parasite Plasmodium falciparum. The biochemical processes that make this organelle essential for erythrocytic stage parasites are not well understood. However, antibiotics such as azithromycin and tetracycline, which target the apicoplast translational machinery, have a potent antimalarial effect.
We have developed a cell-based assay that measures parasite growth based on the expression of an integrated copy of a firefly luciferase reporter. To detect small molecules that cause this "delayed death" phenotype, erythrocytes infected with the luciferase-expressing parasites were incubated with compounds for either one or two generations, corresponding to 48 and 96 hours, respectively. […] Growth inhibition is detected by a decrease in luciferase activity. […]
Four microliters of culture medium (RPMI 1640 with 0.5% w/v Albumax (GIBCO), 24 mM sodium bicarbonate and 10 ug/mL gentamycin) were dispensed by a Multi-drop Combi into white solid 1536-well plates (Grenier) and 23 nL compound was added by a pin tool. […] Two microliters of luciferase detection reagent was added and luminescence was detected by a ViewLux (PerkinElmer) reader.
Potency is read from the fitted curve at half-maximal effect.

Structure (SMILES) | Potency
COc1ccc(Br)c(C(=O)NCC2(N3CCCCC3)CCCCC2)c1 | active: 13.1 µM
